Biological target: CB1 (Mus musculus (Mouse), UniProt P47746)
Assay: radioligand displacement assay in mouse brain membranes (Ki CB1)
Type: binding
Settings: read-out: Ki CB1; Table 2

The chains behind the UniProt entries cited, without tags or fusion partners.
UniProt P47746, whole entry: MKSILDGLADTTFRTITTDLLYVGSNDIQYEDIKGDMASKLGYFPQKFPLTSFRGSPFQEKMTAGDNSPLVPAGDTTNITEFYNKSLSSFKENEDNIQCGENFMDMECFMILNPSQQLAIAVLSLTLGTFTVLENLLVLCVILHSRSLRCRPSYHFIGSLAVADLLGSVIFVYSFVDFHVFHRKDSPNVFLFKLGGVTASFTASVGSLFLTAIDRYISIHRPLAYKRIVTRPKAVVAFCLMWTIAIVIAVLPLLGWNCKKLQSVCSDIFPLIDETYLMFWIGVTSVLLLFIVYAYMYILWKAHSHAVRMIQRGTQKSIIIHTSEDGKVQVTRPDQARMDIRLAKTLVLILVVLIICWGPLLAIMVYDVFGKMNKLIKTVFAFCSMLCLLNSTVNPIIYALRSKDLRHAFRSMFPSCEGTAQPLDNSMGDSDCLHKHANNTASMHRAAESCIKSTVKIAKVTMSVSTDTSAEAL

CC(C)(C)C(=N)NC(=NS(=O)(=O)c1ccc(Cl)cc1)N1C[C@H](c2ccccc2)C(c2ccc(Cl)cc2)=N1
Ki: 3.6 nM

Reference: patent US10787419B2, “Cannabinoid receptor mediating iminopyrazole compounds” (The United States of America, as represented by the …, priority 2012, dated 2020)
